Test results from patent US11779559B2, “Compositions for treating fungal and bacterial biofilms and methods of using the same” (priority 2017, dated 2023).

Tests used:
C. albicans [1] = assay: Disruption biofilm assay, fungal; assay type: cell-based, Candida albicans; conditions: 1% amino acid (unless specifically noted), p≤0.001
Method: (§1) Two types of biofilm assays were performed: a sustained inhibition assay and a disruption assay. The sustained inhibition assay assesses the compound's ability to prevent biofilm development throughout all stages of biofilm formation, while the disruption assay assesses the compound's ability to break up an existing mature biofilm. These assays are described in detail in the following article: Lohse, M. B., Gulati, M., Valle Arevalo, A., Fishburn, A., Johnson, A. D., and Nobile, C. […] Antimicrobial Agents and Chemotherapy 61: e02749-16.
(§2) All bacterial biofilm solutions were prepared in Trypic Soy Broth (TSB), supplemented with 1% glucose (henceforth referred to as TSB-G). All subsequent procedures were performed in a manner that maintained sterility. A solution of each amino acid to be tested was prepared in weight to volume concentrations ranging from 0.1-5.0%. Amino acids were also tested in combinations. Compound solutions were homogenized with gentle agitation in the dark (4° C., 24 hours) before use.
(§3) Fungal strains were streaked on Yeast Peptone Dextrose (YPD) agar plates and incubated at 30° C. for 48 hours. […] Media was carefully aspirated and the biofilm was measured by optical density at 600 nm. […] Media was carefully aspirated and the biofilm was measured by optical density at 600 nm.

C. albicans [2] = assay: Sustained inhibition biofilm assay, fungal; assay type: cell-based, Candida albicans; conditions: 1% amino acid (unless specifically noted), p≤0.001
Method: as §1, §2, §3

N[C@@H](CCS)C(=O)O [Homocysteine (0.4%), L-homocysteine]
Reduce F Biofilm (C. albicans [1]): ● (a single dot [ie. •] signifies minor effect (from about 10 to about 30% change)) | Reduce F Biofilm (C. albicans [2]): ● (a single dot [ie. •] signifies minor effect (from about 10 to about 30% change))
